{"sequences": {"note": "Chains of the proteins cited; added tags and fusions are not shown.", "UniProt P62593, whole entry, looked up": "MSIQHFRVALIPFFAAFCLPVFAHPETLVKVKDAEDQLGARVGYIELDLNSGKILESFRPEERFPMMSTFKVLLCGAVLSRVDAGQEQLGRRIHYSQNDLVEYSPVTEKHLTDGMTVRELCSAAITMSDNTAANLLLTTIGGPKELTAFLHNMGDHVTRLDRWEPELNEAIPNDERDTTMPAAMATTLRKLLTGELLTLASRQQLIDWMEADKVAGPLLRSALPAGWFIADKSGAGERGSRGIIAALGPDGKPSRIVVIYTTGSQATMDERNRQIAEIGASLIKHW"}, "source": "ChEMBL document CHEMBL1146745", "about": "“Studies on anti-Helicobacter pylori agents. Part 3: A novel, efficacious cephem derivative, FR193879” (Bioorg Med Chem Lett, 2004)", "key": {"[1]": {"target": "Beta-lactamase TEM (Escherichia coli) (UniProt P62593)", "assay": "Stability towards beta-lactamase was determined in penicillinase"}, "[2]": {"target": "Beta-lactamase TEM (Escherichia coli) (UniProt P62593)", "assay": "Stability towards penicillinase was determined"}}, "data": [{"compound": "CC1(C)S[C@@H]2[C@H](NC(=O)[C@H](N)c3ccc(O)cc3)C(=O)N2[C@H]1C(=O)O", "note": "[AMOXICILLIN]", "values": [{"measurement": "Vmax", "setting": "[1]", "result": 2.94}, {"measurement": "Km", "setting": "[2]", "result": 22, "unit": "µg/mL"}]}]}
